The test has as its target TBK1 (residues 1-657) (Homo sapiens (Human), UniProt Q9UHD2). Nature of the test: TBK1 dose-response kinase assay. In kind it is biochemical. Particulars: eight inhibitor concentrations from 400 μM or 40 μM to 0 μM; hill slope constrained to −1.

The chains behind the UniProt entries cited, without tags or fusion partners. Residues count along the entry.
UniProt Q9UHD2, 1-657: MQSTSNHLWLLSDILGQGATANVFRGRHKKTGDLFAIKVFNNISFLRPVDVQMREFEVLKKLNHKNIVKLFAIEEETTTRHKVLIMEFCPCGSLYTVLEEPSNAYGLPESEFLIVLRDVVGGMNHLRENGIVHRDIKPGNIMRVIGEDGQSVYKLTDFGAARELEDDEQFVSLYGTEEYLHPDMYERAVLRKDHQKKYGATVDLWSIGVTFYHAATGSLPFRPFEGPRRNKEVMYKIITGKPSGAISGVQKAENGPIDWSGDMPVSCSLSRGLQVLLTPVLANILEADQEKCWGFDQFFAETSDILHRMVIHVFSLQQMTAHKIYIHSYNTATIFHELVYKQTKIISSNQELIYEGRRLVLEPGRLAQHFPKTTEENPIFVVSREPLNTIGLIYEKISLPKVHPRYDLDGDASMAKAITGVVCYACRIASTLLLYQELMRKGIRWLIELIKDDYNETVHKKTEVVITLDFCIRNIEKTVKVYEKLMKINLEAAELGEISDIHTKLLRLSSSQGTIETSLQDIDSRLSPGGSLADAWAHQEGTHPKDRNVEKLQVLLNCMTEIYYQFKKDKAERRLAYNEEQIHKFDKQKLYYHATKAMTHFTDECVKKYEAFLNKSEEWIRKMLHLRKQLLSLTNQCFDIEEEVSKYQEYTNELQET

`Nc1nc2oc3ccc(C4=CCCCC4)cc3c(=O)c2cc1-c1nnn[nH]1` [Compound 69, 2-Amino-7-(cyclohex-1-en-1-yl)-3-(1H-tetrazol-5-yl)-5H-chromeno[2,3-b]132yridine-5-one] registered an IC50 of 320 nM. This lies in the sub-micromolar range.

Values taken from patent US10214536B2, “Amlexanox analogs” (The Regents of the University of Michigan, priority 2016, dated 2019).
